Measured values from BindingDB's records for doi:10.1016/S1074-5521(00)00134-4 (Novartis Pharmaceuticals, 2000).

Protein sequences, listed by entry. Tags and fused reporters are not part of them. Lines headed by an entry give the natural chain unless they say otherwise; changes in a name come on top.
UniProt P00797: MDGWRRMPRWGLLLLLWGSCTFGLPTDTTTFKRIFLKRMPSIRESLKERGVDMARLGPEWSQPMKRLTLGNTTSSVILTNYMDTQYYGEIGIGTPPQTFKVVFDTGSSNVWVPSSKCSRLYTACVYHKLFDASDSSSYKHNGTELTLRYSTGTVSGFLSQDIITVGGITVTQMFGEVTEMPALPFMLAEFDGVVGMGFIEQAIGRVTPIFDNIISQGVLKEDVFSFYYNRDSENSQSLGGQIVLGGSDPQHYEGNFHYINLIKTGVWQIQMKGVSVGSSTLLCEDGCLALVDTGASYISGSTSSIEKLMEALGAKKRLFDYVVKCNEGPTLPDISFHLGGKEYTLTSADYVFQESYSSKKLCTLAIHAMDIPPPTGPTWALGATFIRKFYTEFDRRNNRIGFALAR

Target: Renin (Homo sapiens, UniProt P00797)
Conditions: pH 7.2; 37 °C

Compound: CCCCNC(=O)[C@H](C)CC(O)[C@@H](N)C[C@H](C)COC(=O)c1cn(Cc2ccccc2)c2ccccc12 (stereo partly drawn) [(2S,4S,7R)-4-amino-7-(butylcarbamoyl)-5-hydroxy-2,7-dimethylheptyl 1-benzyl-1H-indole-3-carboxylate]
- IC50: 3 nM
